Results taken from patent US6627635B2, “Method of preventing abuse of opioid dosage forms” (priority 1997, dated 2003).

Columns and labels:
[1] = assay type: physicochemical; settings: 5 tablets/5 mL
[2] = in comparison to a 15 mg dose of hydrocodone

CN1CC[C@]23c4c5ccc(O)c4O[C@H]2C(=O)CC[C@H]3[C@H]1C5 [Hydromorphone]
% Precipitated ([1]; diluent Ethanol): 68%
% Precipitated ([1]; diluent IPA): 99%
% Precipitated ([1]; diluent Methanol): 34%
% Precipitated ([1]; diluent pH 7.2): 5%
% Precipitated ([1]; diluent pH 7.9): 9%
% Precipitated ([1]; diluent pH 9.0): 10%
% Precipitated ([1]; diluent pH 9.9): 10%
% Precipitated ([1]; diluent pH 11.0): 11%
% Precipitated ([1]; diluent pH 11.9): 12%
% Precipitated ([1]; diluent pH 12.9): 27%
Equianalgesic Doses of Opioids, Calculated Dose [2]: 3.375 mg

Where two headings read alike, the source gives them in different places.
